Assay results taken from patent US8846698B2, “Pyrrolo[2,3-d]pyrimidine tropomysin-related kinase inhibitors” (Pfizer Limited, priority 2011, dated 2014).

The chains behind the UniProt entries cited, without tags or fusion partners. Residues count along the entry.
UniProt P04629, 441-796: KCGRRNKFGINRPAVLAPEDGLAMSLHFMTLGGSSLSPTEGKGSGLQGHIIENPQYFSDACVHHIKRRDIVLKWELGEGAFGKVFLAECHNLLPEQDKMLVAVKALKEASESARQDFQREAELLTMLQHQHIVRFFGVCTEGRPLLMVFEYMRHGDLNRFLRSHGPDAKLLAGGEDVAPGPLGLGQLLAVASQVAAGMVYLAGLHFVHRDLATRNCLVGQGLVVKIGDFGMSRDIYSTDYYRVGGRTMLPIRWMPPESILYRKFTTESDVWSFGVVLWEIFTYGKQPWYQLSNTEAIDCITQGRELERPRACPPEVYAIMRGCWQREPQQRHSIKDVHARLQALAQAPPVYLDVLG

Biological target: TRKA (Homo sapiens (Human), UniProt P04629)
Assay: Isolated TRK enzyme assay (HTRF KinEASE-TK), TRKA
Assay type: biochemical

IC50 | SMILES
138 nM | CC(C(N)=O)n1cc(C(=O)c2cncc(NC(=O)Cc3ccc(Cl)cc3)c2)c2cncnc21 (racemic) [Example 229, 2-{5-[(5-{[(4-Chlorophenyl)acetyl]amino}pyridin-3-yl)carbonyl]-7H-pyrrolo[2,3-d]pyrimidin-7-yl}propanamide]
19.5 nM | CC(C)n1cc(C(=O)c2cncc(NC(=O)Cc3ccc4cn[nH]c4c3)c2)c2cncnc21 [Example 99, 2-(1H-indazol-6-yl)-N-{5-[(7-isopropyl-7H-pyrrolo[2,3-d]pyrimidin-5-yl)carbonyl]pyridin-3-yl}acetamide]
